Activity calls are given as the source filed them. The rule behind the calls is not given here.
How the values were obtained:
[1] = biological target: T1, Growth hormone secretagogue receptor type 1 (Homo sapiens, UniProt Q92847); assay: Tested for growth hormone secretagogue activity in A93 cell line using a calcium flux assay at 10 uM (Relative to compound T1); NA means not active; type: functional, cell-based
[2] = biological target: T1, Growth hormone secretagogue receptor type 1; assay: Tested for growth hormone secretagogue activity in A93 cell line using a calcium flux assay at 10 uM (Relative to compound T1); type: functional, cell-based

The chains behind the UniProt entries cited, without tags or fusion partners.
UniProt Q92847, whole entry: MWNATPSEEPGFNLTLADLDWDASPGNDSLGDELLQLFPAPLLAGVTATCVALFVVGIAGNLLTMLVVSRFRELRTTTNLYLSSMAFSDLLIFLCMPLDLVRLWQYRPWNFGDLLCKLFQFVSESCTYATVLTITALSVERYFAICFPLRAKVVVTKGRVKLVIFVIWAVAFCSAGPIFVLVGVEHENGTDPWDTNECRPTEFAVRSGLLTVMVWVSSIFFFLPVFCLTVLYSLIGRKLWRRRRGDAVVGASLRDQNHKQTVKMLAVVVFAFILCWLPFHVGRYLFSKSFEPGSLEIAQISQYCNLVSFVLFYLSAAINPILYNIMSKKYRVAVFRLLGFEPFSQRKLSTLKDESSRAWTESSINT

Activity [1] | Activity [2] | Compound
inactive | – | CC(C)(C)NC(=O)C(c1ccc(F)cc1)N(CCCN1CCOCC1)C(=O)c1ccc(-c2ccccc2)[nH]1 (stereo not drawn)
inactive | – | O=C(NC1CCCCC1)C(c1ccc(F)cc1)N(CCCN1CCOCC1)C(=O)c1ccc(-c2ccccc2)[nH]1 (stereo not drawn)
– | 0.24 | CCN(CC)CCN(C(=O)c1ccc(CN2CCCCC2)o1)C(C(=O)NC1CCCCC1)c1ccc(F)cc1 (stereo not drawn)
